Test results: US9944618B2, “Inhibiting neurotransmitter reuptake” (Mayo Foundation for Medical Education and Research, priority 2013, dated 2018)

The chains behind the UniProt entries cited, without tags or fusion partners. Where a name states a change or a piece, a line headed by the entry shows the natural chain unless it says otherwise.
UniProt Q12809: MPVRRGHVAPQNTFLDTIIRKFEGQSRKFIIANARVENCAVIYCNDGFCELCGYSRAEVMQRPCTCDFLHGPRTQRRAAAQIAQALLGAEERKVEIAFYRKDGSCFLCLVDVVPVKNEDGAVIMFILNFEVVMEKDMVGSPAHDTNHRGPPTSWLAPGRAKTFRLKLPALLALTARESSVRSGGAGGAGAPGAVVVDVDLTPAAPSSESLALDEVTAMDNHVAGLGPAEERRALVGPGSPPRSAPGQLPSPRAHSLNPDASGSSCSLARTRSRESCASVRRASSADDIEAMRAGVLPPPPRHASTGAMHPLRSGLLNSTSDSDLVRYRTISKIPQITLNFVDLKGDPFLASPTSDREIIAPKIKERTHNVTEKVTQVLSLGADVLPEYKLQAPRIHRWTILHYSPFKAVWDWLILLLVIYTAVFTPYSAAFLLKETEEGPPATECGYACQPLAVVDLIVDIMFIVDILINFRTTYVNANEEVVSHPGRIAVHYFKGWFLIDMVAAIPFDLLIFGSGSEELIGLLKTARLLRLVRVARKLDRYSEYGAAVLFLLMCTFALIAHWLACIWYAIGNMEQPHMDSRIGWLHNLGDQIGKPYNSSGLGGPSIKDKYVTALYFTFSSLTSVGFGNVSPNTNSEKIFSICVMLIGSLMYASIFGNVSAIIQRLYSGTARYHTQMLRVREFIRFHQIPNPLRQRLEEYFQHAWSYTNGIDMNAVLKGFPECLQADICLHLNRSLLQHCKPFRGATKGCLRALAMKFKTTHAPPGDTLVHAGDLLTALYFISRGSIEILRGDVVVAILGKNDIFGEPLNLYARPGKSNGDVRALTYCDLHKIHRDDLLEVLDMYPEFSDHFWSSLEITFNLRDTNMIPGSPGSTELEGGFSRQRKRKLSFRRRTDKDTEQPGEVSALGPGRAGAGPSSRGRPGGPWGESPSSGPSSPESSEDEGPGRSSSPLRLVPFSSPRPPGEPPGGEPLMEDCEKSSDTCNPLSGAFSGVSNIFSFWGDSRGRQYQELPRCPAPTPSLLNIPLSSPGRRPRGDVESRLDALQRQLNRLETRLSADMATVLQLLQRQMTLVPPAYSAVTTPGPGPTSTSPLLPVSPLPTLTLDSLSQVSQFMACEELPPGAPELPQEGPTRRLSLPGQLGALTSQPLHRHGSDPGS

Molecular target: hERG (Homo sapiens (Human), UniProt Q12809)
Experiment: Human ERG (hERG) assay, hERG currents in hERG-expressing CHO cells
Type: cell-based
Settings: selected reference compounds

Structure (SMILES): Fc1ccc(C(OCCN2CCN(CCCc3ccccc3)CC2)c2ccc(F)cc2)cc1 [compound 175]
- IC50: 470 nM
